Tested on: STX429-2A (erg 6)
Details: strain STX429-2A (erg 6)
Experimental: Test media are prepared by combining separately 0.5 parts STX429-2A inoculum to 100 parts of warm YEPD agar media and 2 parts of DCX45(pML82)-1B to 100 parts of warm YEPD agar media. Plates for each culture are poured. Test samples are prepared on disks in duplicate, and each is placed on a STX429-2A plate and a DCX45(pML82)-1B plate, testing 20 μg of test sample per disk. A ¼″ disk containing 10 μg of dinaconazole is used as a positive control on each plate.
The plates are incubated at 30° C. for two days and then examined to compare activity on the two strains. Actives produce a larger zone on the DCX45(pML82)-1B plate than on the STX429-2A plate.

In the case of `CC(=O)N1CCN(c2ccc(OCC3COC(Cn4ccnc4)(c4ccc(Cl)cc4Cl)O3)cc2)CC1` (stereo not shown) [ketoconazole], the “Limit of Detection” value is reported as 100 ng.

Source: US6387647B1 (priority 1993, dated 2002)
